Laboratory results taken from patent US8617534B2, “Compositions and method for manipulating PIM-1 activity in circulatory system cells” (San Diego State University (SDSU) Foundation, priority 2007, dated 2013).

Tested on: cardiac progenitor cells
Experiment: Cell growth of cardiac progenitor cells (trypan blue exclusion, proliferation rate)
Format: cell-based
Conditions: 10 uM in culture media; day two and three; compared to untreated CGW-Pim-wt CPCs

Q: With `O=c1c(O)c(-c2ccc(O)c(O)c2)oc2cc(O)c(O)c(O)c12` [quercetagetin] as the compound, how does the “growth rate of CGW-Pim-wt CPCs” value read?
A: Its value is “significantly decreased the growth rate”.
